Each structure is given as a SMILES string.

The assay in a line: Antagonist activity at CCR4 in human CCRF-CEM cells assessed as inhibition of CCL22-mediated chemotaxis in presence of 100% human serum pre-incubated for 30 mins followed by CCL22 addition and measured after 60 mins by chemoTX probe based CellTiter-Glo assay. (In ATP-based viability assays light output follows the ATP content of the culture.)
Regarding `Cc1nn([C@H](C)c2ccc(Cl)cc2Cl)c2nc(N3CC[C@H](N4CCC4)[C@H](C)C3)cnc12` [US10246462, Example 13], the IC50 was found to be 218 nM.
In the case of `Cc1nn([C@H](C)c2ccc(Cl)cc2Cl)c2nc(N3CC[C@H](N4CCCCCC4)[C@H](C)C3)cnc12` [US10246462, Example 14] it was 195 nM; in that of `Cc1nn([C@H](C)c2ccc(Cl)cc2Cl)c2nc(N3CC[C@H](N4CCC[C@H]4CO)[C@H](C)C3)cnc12` [US10246462, Example 31], 151 nM.

By IC50 is commonly meant the concentration needed to halve the response being measured.

The values above are taken from BindingDB's records for doi:10.1021/acs.jmedchem.9b00506 (Rapt Therapeutics, 2019).
